Experimental data: PubChem BioAssay (NCI)
Some of these compounds have results that are not shown, active ones among them.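 Five compound concentrations were applied to cells in 96-well plates for 48 hours; endpoints were derived by simple linear interpolation of the resulting dose-response curve. At the TGI there is no net growth.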

How the values were obtained:
Test in all cases: DTP human tumour cell line panel, 48 h
SF-295 CNS = test system: SF-295 CNS
HOP-62 NSCLC = test system: HOP-62 NSCLC
SK-MEL-2 melanoma = test system: SK-MEL-2 melanoma
HCT-116 colon = test system: HCT-116 colon
NCI-H460 lung = test system: NCI-H460 lung
MDA-MB-231 breast = test system: MDA-MB-231 breast
OVCAR-3 ovarian = test system: OVCAR-3 ovarian
MOLT-4 leukemia = test system: MOLT-4 leukemia
HL-60(TB) leukemia = test system: HL-60(TB) leukemia
SF-539 CNS = test system: SF-539 CNS
CCRF-CEM leukemia = test system: CCRF-CEM leukemia
MALME-3M melanoma = test system: MALME-3M melanoma
UACC-257 melanoma = test system: UACC-257 melanoma
BT-549 breast = test system: BT-549 breast
MDA-MB-435 = test system: MDA-MB-435
UACC-62 melanoma = test system: UACC-62 melanoma
SN12C renal = test system: SN12C renal
SK-MEL-5 melanoma = test system: SK-MEL-5 melanoma
SF-268 CNS = test system: SF-268 CNS
SR leukemia = test system: SR leukemia
TK-10 renal = test system: TK-10 renal
T-47D breast = test system: T-47D breast
SK-OV-3 ovarian = test system: SK-OV-3 ovarian
IGROV1 ovarian = test system: IGROV1 ovarian
LOX IMVI melanoma = test system: LOX IMVI melanoma
CAKI-1 renal = test system: CAKI-1 renal
RXF 393 renal = test system: RXF 393 renal
786-0 renal = test system: 786-0 renal
EKVX NSCLC = test system: EKVX NSCLC
DU-145 prostate = test system: DU-145 prostate
MCF7 breast = test system: MCF7 breast
COLO 205 colon = test system: COLO 205 colon
OVCAR-4 ovarian = test system: OVCAR-4 ovarian
MDA-N = test system: MDA-N
NCI-H522 lung = test system: NCI-H522 lung
U251 CNS = test system: U251 CNS
M14 melanoma = test system: M14 melanoma
RPMI-8226 leukemia = test system: RPMI-8226 leukemia
ACHN renal = test system: ACHN renal
NCI/ADR-RES ovarian = test system: NCI/ADR-RES ovarian
K-562 leukemia = test system: K-562 leukemia
HT29 colon = test system: HT29 colon
SW-620 colon = test system: SW-620 colon
HCT-15 colon = test system: HCT-15 colon
OVCAR-5 ovarian = test system: OVCAR-5 ovarian
A549 NSCLC = test system: A549 NSCLC
NCI-H226 lung = test system: NCI-H226 lung
HS 578T breast = test system: HS 578T breast
NCI-H23 lung = test system: NCI-H23 lung
OVCAR-8 ovarian = test system: OVCAR-8 ovarian
SK-MEL-28 melanoma = test system: SK-MEL-28 melanoma
A498 renal = test system: A498 renal
SNB-75 CNS = test system: SNB-75 CNS
PC-3 prostate = test system: PC-3 prostate
KM12 colon = test system: KM12 colon
SNB-19 CNS = test system: SNB-19 CNS
NCI-H322M lung = test system: NCI-H322M lung
HOP-92 NSCLC = test system: HOP-92 NSCLC

Measured: TGI

CN1CCCC(OC(=O)C(O)(c2ccccc2)C2CCCC2)C1 (stereo not drawn)
> 100 µM: all assays above
